ChEMBL document CHEMBL1144666, “Indoleamine 2,3-dioxygenase is the anticancer target for a novel series of potent naphthoquinone-based inhibitors” (J Med Chem, 2008)

The chains behind the UniProt entries cited, without tags or fusion partners.
UniProt P14902, whole entry: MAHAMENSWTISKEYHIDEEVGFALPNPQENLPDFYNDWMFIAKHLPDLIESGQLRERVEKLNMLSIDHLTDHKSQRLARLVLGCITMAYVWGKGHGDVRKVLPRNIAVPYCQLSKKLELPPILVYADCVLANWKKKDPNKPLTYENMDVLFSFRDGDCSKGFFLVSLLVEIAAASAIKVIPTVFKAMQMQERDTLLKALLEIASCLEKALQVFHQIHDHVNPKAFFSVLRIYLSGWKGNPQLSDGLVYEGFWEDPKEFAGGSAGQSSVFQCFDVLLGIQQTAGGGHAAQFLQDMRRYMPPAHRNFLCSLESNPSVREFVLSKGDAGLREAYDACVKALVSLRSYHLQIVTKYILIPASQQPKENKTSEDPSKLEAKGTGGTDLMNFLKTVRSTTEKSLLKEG

Target: Indoleamine 2,3-dioxygenase 1 (Homo sapiens, UniProt P14902)
Assay: Inhibition of purified human recombinant IDO expressed in TREx cells
Method in brief: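 T-REx cells carrying doxycycline-inducible human IDO cDNA are seeded at 20000/well and induced 72 h with doxycycline. They are rinsed, then exposed in triplicate to serial dilutions in phenol red-free DMEM + 10% FBS for 18 h and TCA-fixed. Supernatant kynurenine is read with p-DMAB at 490 nm, corrected for SRB viability. IC50 is taken from a sigmoidal curve.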

CC1(C)OC2=C(C(=O)c3ccccc3C2=O)C(NCc2ccccc2)C1O (stereo in doubt)
IC50: 6.8 µM
